The values that follow come from PubChem BioAssay AID652154 (Broad Institute, 2013).

Each structure is given as a SMILES string. The entries are a selection whose mix differs from that of the whole data set. Active and inactive are the calls of the source.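 The calls were made as follows: active = mean replicate inhibition at least 60% with every replicate also reaching 60%; inconclusive = only one of the two criteria is met; inactive = mean below 60% and not all replicates reaching 60%.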

This assay is described as follows: inhibitors of PAX8-driven TPO luciferase reporter, primary screen, RMG-I cells, single concentration (AID 652154).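 Also: luciferase light reporting Pax8 driven TPO promoter activity; plate controls were median of neutral control wells for no effect and mitoxantrone controls for full effect.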 The following applies: SteadyGlo, 24 h, at 12.6 µM, stronger effect = higher value.
Regarding `O=[As](O)(c1ccccc1)c1ccc(O)cc1`, the inhibition was inactive: -4.13%.
Turning to `O=[N+]([O-])c1ncn(CCn2cnc([N+](=O)[O-])n2)n1`, the inhibition is inactive: -13.8%.
As for `CC(=O)NC(SC(=S)N(C)C)C(Cl)(Cl)Cl` (configuration not stated), the figure is inactive: -6.28%; as for `O=C(OC1CN2CCC1CC2)c1cccc(Cl)c1` (configuration not stated), inactive: -11.4%; as for `C/C(N)=N\P(=O)(OCc1ccccc1)OCc1ccccc1`, inactive: -3.21%.
For `Nc1ccc([As](=O)(O)c2ccc([N+](=O)[O-])cc2)cc1`, the inhibition was inactive: -2.25%.
Then `C(Cc1nn[nH]n1)Cc1nn[nH]n1`, with inactive: -1.77%; and `O=P(Nc1ccccn1)(c1ccc(Br)cc1)c1ccc(Br)cc1`, with inactive: 4.71%.
Take `CN(C)C1(CNC(=O)c2ccc(Cl)c(S(N)(=O)=O)c2)CCCCC1`: the inhibition was inactive: -11.2%.
Regarding `Nc1ccc(CCCCOc2ccccc2)cc1`, the inhibition is inactive: -92.7%.
As for `COc1ccc(N)c([N+](=O)[O-])c1[N+](=O)[O-]`, the inhibition was inactive: 4.55%.
As for `O=P(Nc1nc2ccccc2s1)(c1ccccc1)c1ccccc1`, the figure is inactive: -7.61%; as for `C[C@H]1OP(=O)(Oc2ccccc2)[C@H](O)[C@H](O)[C@H]1N=[N+]=[N-]` (some centres not stated), inactive: -1.9%.
For `CC(C)C(=O)NC(Sc1ccccc1)C(Cl)(Cl)Cl` (configuration not stated), the inhibition is inactive: 4.66%.
In the case of `Cc1ccccc1CN(C)C(=O)COC(=O)C(O)(c1ccccc1)c1ccccc1`, the inhibition is inactive: 11.2%.
Regarding `C[C@@H]1C=CCP(=O)(Oc2ccccc2)O1` (some centres not stated), the inhibition was inactive: 7.61%.
On to `C[C@H]1OP(=O)(Oc2ccccc2)C[C@@H]2O[C@@H]21` (some centres not stated), for which the inhibition was inactive: -13.9%.
For the compound `N#C/C(=C\c1ccc(N(CCBr)CCBr)cc1)C(N)=O`, the inhibition is inactive: -7.53%.
Regarding `CC(=O)c1ccc(N2CC2c2ccncc2)cc1` (configuration not stated), the inhibition was inactive: -15.1%.
Then `COC(=O)C1(C)COP(=O)(NCc2ccccc2)OC1` (configuration not stated), with inactive: 9.77%; and `CC(=O)Nc1ccc([As](=O)(O)O)c(O)c1`, with inactive: 16.7%.
For the compound `CC(=O)Nc1ccc(Oc2c([N+](=O)[O-])cc([N+](=O)[O-])cc2[N+](=O)[O-])cc1`, the inhibition was inactive: 16.8%.
Regarding `CCOc1ccc(C2=NCC(CBr)S2)cc1` (configuration not stated), the inhibition is inactive: 17.3%.
On to `CC(C)(C)C(=O)NC(Sc1ccccc1)C(Cl)(Cl)Cl` (configuration not stated), for which the inhibition is inactive: -0.945%.
Regarding `O=C(OC1CN2CCC1CC2)c1ccccc1` (configuration not stated), the inhibition is inactive: -4.68%.
As to `Cc1ccc(OP(=O)(Nc2ccccn2)Oc2ccc(C)cc2)cc1`, the inhibition was inactive: 14.1%.
Take `CC(=O)NC(SC(=S)N(CC(C)C)CC(C)C)C(Cl)(Cl)Cl` (configuration not stated): the inhibition was inactive: -10.8%.
As for `Cc1ccccc1OP(=O)(Nc1ccccn1)Oc1ccccc1C`, the inhibition is inactive: -11.8%.
In the case of `CC(NC(=O)COC(=O)C(O)(c1ccccc1)c1ccccc1)c1ccccc1` (configuration not stated), the inhibition was inactive: 11.3%.
Take `CN(C)C(=O)Oc1noc2ccccc12`: the inhibition was inactive: -5.87%.
For the compound `O=c1c2cc([N+](=O)[O-])ccc2[nH]c2c([N+](=O)[O-])cc([N+](=O)[O-])cc12`, the inhibition was inactive: 6.18%.
Regarding `c1ccc(-c2nn[nH]n2)c(-c2nn[nH]n2)c1`, the inhibition was inactive: 11.7%.
As for `Cc1ccc(NP(=O)(Oc2cccc(C)c2)Oc2cccc(C)c2)nc1`, the figure is inactive: -6.68%.
As for `CCNC(=S)/N=C(\N)N[N+](=O)[O-]`, the inhibition is inactive: -2.41%.
Consider `O=C(NC1CCS(=O)(=O)C1)NP(=S)(Oc1ccccc1)Oc1ccccc1` (configuration not stated), for which the inhibition is inactive: -21%.
Turning to `O=P1(N(CCCl)CCCl)OCCC2CCCCN21` (configuration not stated), the inhibition is inactive: -16.2%.
As to `Nc1cccc2ccc([As](=O)(O)O)cc12`, the inhibition is inactive: 9.3%.
On to `CCN(N=Nc1nonc1N)c1nonc1N`, for which the inhibition was inactive: -15.1%.
Then `CN(C)P(=O)(N(C)C)n1c(Nc2ccccc2)nnc1-c1ccccc1`, with inactive: -7.71%; and `O=P(Nc1nc2ccc(Cl)cc2s1)(c1ccccc1)c1ccccc1`, with inactive: 1.99%; and `O=C(O)c1ccccc1[As](=O)(O)O`, with inactive: 9.68%.
In the case of `CC(=O)Nc1ccc([As](=O)(O)O)cc1`, the inhibition was inactive: -1.27%.
As for `CCCC1OP(N)(=O)OCC1CC` (configuration not stated), the inhibition was inactive: 9.49%.
Then `Cc1cc(SC(NC(=O)c2ccc(F)cc2)C(Cl)(Cl)Cl)ncn1` (configuration not stated), with inactive: 36.2%.
In the case of `Cc1ccc(NP(=O)(Oc2ccccc2F)Oc2ccccc2F)nc1`, the inhibition is inactive: 2.23%.
For the compound `CN(C(=O)Cc1ccc(Cl)c(Cl)c1)[C@H]1CCCC[C@@H]1N1CCCC1`, the inhibition is inactive: 1.4%.
As for `O=C(NC(Sc1ccncn1)C(Cl)(Cl)Cl)c1ccccc1` (configuration not stated), the figure is inactive: 8.38%; as for `Nc1cc(N)c2nonc2c1[N+](=O)[O-]`, inactive: -20.8%.
With `CN(C(=O)Cc1ccc(Cl)c(Cl)c1)[C@H]1CCCC[C@H]1N1CCCC1`, the inhibition is inactive: 2.08%.
As for `Cc1ccc(N/C(=N/P(=O)(N2CCOCC2)N2CCOCC2)N2CCOCC2)cc1`, the inhibition was inactive: 4.02%.
Take `NC(=O)c1cc([N+](=O)[O-])cc([N+](=O)[O-])c1N`: the inhibition was inactive: 7.18%.
Consider `Clc1ccc(Cl)c(NC2=NCC(CBr)S2)c1` (configuration not stated), for which the inhibition is inactive: 10.4%.
As to `COc1ccccc1OP(=O)(Nc1ccc(C)cn1)Oc1ccccc1OC`, the inhibition is inactive: 24.2%.
Take `Cc1ccc(OP(=O)(Nc2nccs2)Oc2ccc(C)cc2)cc1`: the inhibition was inactive: 3.28%.
`CCN(/C(=N/P(=O)(N1CCOCC1)N1CCOCC1)N1CCOCC1)c1ccc(OC)cc1`: the inhibition was inactive: 17.2%.
Regarding `Nc1ccc([As](=O)(O)c2ccc(N)cc2)cc1`, the inhibition was inactive: -9.52%.
Take `C[N+]1=C2C=CC=CC=C2SC12C([N+](=O)[O-])=CC([N+](=O)[O-])=C[C-]2[N+](=O)[O-]` (configuration not stated): the inhibition was inactive: 30.7%.
As for `c1cc(-c2nn[nH]n2)ccc1-c1nn[nH]n1`, the inhibition is inactive: -4.41%.
Consider `CC(C)=N/N=C(\N)N[N+](=O)[O-]`, for which the inhibition is inactive: 24.6%.
Turning to `CC(C)c1nc(Nc2ccccc2)n(P(=O)(N(C)C)N(C)C)n1`, the inhibition is inactive: -10.1%.
On to `COc1ccc(C2=NCC(CBr)S2)cc1` (configuration not stated), for which the inhibition is inactive: 14.7%.
`Cc1ccc(NP(=O)(Oc2ccccc2)Oc2ccccc2)nc1`: the inhibition is inactive: 20.1%.
Turning to `O=[N+]([O-])c1cc([N+](=O)[O-])c(CCNc2ccccc2)c([N+](=O)[O-])c1`, the inhibition was inactive: 20.8%.
As to `O=[N+]([O-])c1cccc2n[nH]nc12`, the inhibition was inactive: 10.1%.
Consider `O=[N+]([O-])c1ncn(CCn2ncnc2[N+](=O)[O-])n1`, for which the inhibition is inactive: 17.7%.
As to `CC(C)(C)C(=O)NC(Sc1ccncn1)C(Cl)(Cl)Cl` (configuration not stated), the inhibition was inactive: 14.3%.
With `O=C(O)CNc1ccc([As](=O)(O)O)cc1`, the inhibition was inactive: -9.18%.
In the case of `O=[N+]([O-])c1cccc(NC2=NCC(CBr)S2)c1` (configuration not stated), the inhibition is inactive: -8.33%.
For the compound `COC(=O)C1(C)COP(=O)(Nc2ccccc2)OC1` (configuration not stated), the inhibition is inactive: -0.446%.
`O=P1(N(CCCl)CCCl)OCCCS1` (configuration not stated): the inhibition is inactive: 9.78%.
In the case of `O=C(Nc1cc([As](=O)(O)O)ccc1O)c1ccccc1`, the inhibition is inactive: -14.9%.
As for `CCOC(=O)Nc1cccc([As](=O)(O)O)c1`, the inhibition is inactive: 1.73%.
As for `O=P(Nc1ccccn1)(c1cccc2ccccc12)c1cccc2ccccc12`, the figure is inactive: -8.74%.
Then `Cc1cc(SC(NC=O)C(Cl)(Cl)Cl)ncn1` (configuration not stated), with inactive: -3.23%; and `O=[N+]([O-])c1ccc(Nc2ccc(Oc3ccc([N+](=O)[O-])cc3[N+](=O)[O-])cc2)c([N+](=O)[O-])c1`, with inactive: -6.9%; and `CCOC(=O)Nc1ccc([As](=O)(O)O)c(O)c1`, with inactive: -13.3%.
As to `O=C(O)C(O)c1ccc(N(CCCl)CCCl)cc1` (configuration not stated), the inhibition is inactive: 8.73%.
As for `CC1CCNP(=O)(N(CCCl)CCCl)O1` (configuration not stated), the figure is inactive: -6.46%.
As for `COP(=O)(OC)N1CC1c1ccccc1` (configuration not stated), the figure is inactive: -3.46%.
Then `CCCCOc1ccc(C(=O)NCC2(N3CCCCC3)CCCCC2)cc1OC`, with inactive: 8.4%.
As for `Cc1cc(SC(NC(=O)c2ccccc2)C(Cl)(Cl)Cl)nc(C(C)C)n1` (configuration not stated), the inhibition is inactive: 11%.
Turning to `O=C(OC1CN2CCC1CC2)c1cccc([N+](=O)[O-])c1` (configuration not stated), the inhibition is inactive: -1.02%.
On to `CCOC(=O)c1ccc(NC(=O)C(C)(CCl)SC)cc1` (configuration not stated), for which the inhibition was inactive: -71.3%.
Take `CCC(C)N(CC(C)C)C(=S)SC(NC(C)=O)C(Cl)(Cl)Cl` (configuration not stated): the inhibition is inactive: -4.97%.
Then `COC(=O)C1(C)COP(=O)(N2CCCC2)OC1` (configuration not stated), with inactive: -2.51%.
`O=C(O)C(=O)c1ccc(N(CCCl)CCCl)cc1`: the inhibition is inactive: 4.89%.
`O=C(COc1ccccc1)OC1CN2CCC1CC2` (configuration not stated): the inhibition was inactive: 1.96%.
As for `O=C(Nc1ccncc1[N+](=O)[O-])c1ccc([N+](=O)[O-])cc1[N+](=O)[O-]`, the inhibition is inactive: -27%.
In the case of `O=[N+]([O-])c1cc(Oc2ccc([N+](=O)[O-])cc2C(F)(F)F)cc([N+](=O)[O-])c1`, the inhibition was inactive: 7.06%.
For the compound `COc1ccc(N/C(=N/P(=O)(N2CCOCC2)N2CCOCC2)N2CCOCC2)cc1`, the inhibition was inactive: -15%.
`Cc1c2c(nc3ccccc13)SC(C(Cl)Cl)C2` (configuration not stated): the inhibition was inactive: 4.4%.
For the compound `Cc1cc(=O)[nH]c(N[N+](=O)[O-])n1`, the inhibition is inactive: 0.542%.
`COc1ccc(CN2/C(=N\P(=O)(Oc3ccccc3)Oc3ccccc3)Cc3ccccc3C2C2CC2)cc1` (configuration not stated): the inhibition is active: 89.6%.
As for `O=P1(N(CCCl)CCCl)OCCCN1CCCl` (configuration not stated), the inhibition is inactive: -9.57%.
`COc1ccc2nc(NP(=O)(c3ccccc3)c3ccccc3)sc2c1`: the inhibition is inactive: 8.84%.
In the case of `COc1cc(I)ccc1[As](=O)(O)O`, the inhibition was inactive: 14%.
For `ClCCSc1nnc(-c2cccnc2)o1`, the inhibition is inactive: -3.23%.
As for `CC(C)c1ccc(OP(=O)(Nc2ccccn2)Oc2ccccc2F)cc1` (configuration not stated), the inhibition is inactive: 10.2%.
Then `COC(=O)C1(C)COP(=O)(N2CCCCCC2)OC1` (configuration not stated), with inactive: 15.4%; and `O=C(OC1CN2CCC1CC2)c1cccc2[nH]cnc12` (configuration not stated), with inactive: 4.74%; and `CC(C)NC(=O)NP(=O)(Oc1ccccc1)Oc1ccccc1`, with inactive: -2.79%.
On to `O=[As](O)(c1ccc(O)cc1)c1ccccc1O`, for which the inhibition is inactive: -19.5%.
